Measured values published in patent publication US9815846B2 (Merck Sharp & Dohme Corp., priority 2014, dated 2017).

Amino acid sequences for entries named in this document (tags omitted). Residues count along the entry.
UniProt P04629, 33-796: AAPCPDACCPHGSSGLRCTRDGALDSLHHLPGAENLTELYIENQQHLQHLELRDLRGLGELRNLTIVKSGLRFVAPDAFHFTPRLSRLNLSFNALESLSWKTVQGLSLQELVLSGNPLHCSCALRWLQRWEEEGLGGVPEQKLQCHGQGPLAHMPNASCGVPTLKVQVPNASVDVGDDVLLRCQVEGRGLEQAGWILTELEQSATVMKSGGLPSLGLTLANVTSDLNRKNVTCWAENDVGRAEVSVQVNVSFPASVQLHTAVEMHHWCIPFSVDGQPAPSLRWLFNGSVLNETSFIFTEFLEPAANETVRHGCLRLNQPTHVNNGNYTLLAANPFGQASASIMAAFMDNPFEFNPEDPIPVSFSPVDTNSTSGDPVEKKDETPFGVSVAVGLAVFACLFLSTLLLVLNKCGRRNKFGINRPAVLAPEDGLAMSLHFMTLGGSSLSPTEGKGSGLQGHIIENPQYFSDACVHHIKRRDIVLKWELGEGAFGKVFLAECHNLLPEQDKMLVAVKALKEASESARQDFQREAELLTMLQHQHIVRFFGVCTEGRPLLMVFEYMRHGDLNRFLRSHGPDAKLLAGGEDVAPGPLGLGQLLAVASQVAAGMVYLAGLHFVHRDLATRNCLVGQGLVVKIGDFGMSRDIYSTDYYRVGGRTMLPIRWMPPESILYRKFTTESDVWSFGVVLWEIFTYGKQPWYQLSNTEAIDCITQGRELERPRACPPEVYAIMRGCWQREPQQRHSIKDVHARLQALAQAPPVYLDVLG

Molecular target: human TrkA receptor (Homo sapiens (Human), UniProt P04629)
Test: DiscoverX PathHunter TrkA functional assay (NGF-stimulated U2OS cells)
Format: cell-based
Settings: U2OS cells expressing human TrkA-PK, Shc1-EA and p75NTR; compound 1 h, then NGF at ~80% of maximal response for 3 h; luminescence

| Structure (SMILES) | IC50 [nM] |
| --- | --- |
| Cn1ccc(-c2cc(C(=O)Nc3ccc(C4CCC(=O)N4)nc3-c3ccccc3)ccc2C(F)(F)F)n1 (single isomer, unassigned) [Example 189, (R or S)-3-(1-Methyl-1H-pyrazol-3-yl)-N-(6-(5-oxopyrrolidin-2-yl)-2-phenylpyridin-3-yl)-4-(trifluoromethyl)benzamide] | 0.51 |
| CS(=N)(=O)c1ccc(-c2cnc(-c3ccccc3)c(NC(=O)c3cc(-c4cc[nH]n4)c(C(F)(F)F)cc3F)c2)cc1 (single isomer, unassigned) [Example 217, (R or S)-2-Fluoro-N-(5-(4-(S-methylsulfonimidoyl)phenyl)-2-phenylpyridin-3-yl)-5-(1H-pyrazol-3-yl)-4-(trifluoromethyl)benzamide] | 11 |
